Values joined by “and” are separate entries in the source; they are usually repeats but may differ in a detail not shown here. Equal entries are not always repeated. Where two headings read alike, the source gives them in different places.
Assays:
[1] = target: T1, BCL6 BTB domain (Homo sapiens, UniProt P41182); conditions: for LE: ligand efficiency from TR-FRET pIC50; for LLE: lipophilic ligand efficiency from TR-FRET pIC50
[2] = target: T1, BCL6 BTB domain; experiment: biochemical

Compound	LE [1]	LLE [1]	other results
Cn1c(=O)n(C)c2cc(Nc3ccnc(Cl)c3C#N)ccc21 [Compound 1]	0.35	3.09	BCL6 TR-FRET pIC50 mean ([1]; mean of n replicates): 5.49 and 5.486; IC50 ([1]; read-out: BCL6 TR-FRET Geo Mean IC50, geometric mean of n replicates, supplement): 3.27 µM; IC50 ([1]; read-out: TR-FRET IC50 individual replicates, single replicates, italic values used 10nM BCL6, otherwise 1nM BCL6): 3.32 µM and 4.22 µM and 2.23 µM and 1.7 µM and 9.38 µM and 3.23 µM; IC50 ([2]; BCL6 TR-FRET Geo Mean IC50, geometric mean of n replicates, supplement): 3.27 µM; IC50 ([2]; TR-FRET IC50 individual replicates, single replicates, italic values used 10nM BCL6, otherwise 1nM BCL6): 2.47 µM
CCCNc1cc(=O)n(C)c2ccc(Nc3cc(C(=O)O)nc(Cl)c3C#N)cc12 [Compound 11b, 6-Chloro-5-cyano-4-((1-methyl-2-oxo-4-(propylamino)-1,2-dihydroquinolin-6-yl)amino)picolinic Acid]	0.28	2.32	–
CCNc1cc(=O)n(C)c2ccc(Nc3cc(C(=O)O)nc(Cl)c3C#N)cc12 [Compound 11a, 6-Chloro-5-cyano-4-((4-(ethylamino)-1-methyl-2-oxo-1,2-dihydroquinolin-6-yl)amino)picolinic Acid]	0.30	3.05	–
Cc1nnc(C(C)Nc2cc(=O)n(C)c3ccc(Nc4ccnc(Cl)c4C#N)cc23)o1 (stereo not shown) [Compound 13c, 2-Chloro-4-((1-methyl-4-((1-(5-methyl-1,3,4-oxadiazol-2-yl)ethyl)amino)-2-oxo-1,2-dihydroquinolin-6-yl)amino)nicotinonitrile]	0.27	4.56	–
CNC(=O)C(C)Nc1cc(=O)[nH]c2ccc(Nc3ccnc(Cl)c3C#N)cc12 (stereo not shown) [Compound 12a, 2-((6-((2-Chloro-3-cyanopyridin-4-yl)amino)-2-oxo-1,2-dihydroquinolin-4-yl)amino)-N-methylpropanamide]	0.31	4.66	–
CNC(=O)C(Nc1cc(=O)[nH]c2ccc(Nc3ccnc(Cl)c3C#N)cc12)C1CC1 (stereo not shown) [Compound 12d, 2-((6-((2-Chloro-3-cyanopyridin-4-yl)amino)-2-oxo-1,2-dihydroquinolin-4-yl)amino)-2-cyclopropyl-N-methylacetamide]	0.28	3.97	–
N#Cc1c(Nc2ccc3[nH]c(=O)cc(N4CCOCC4)c3c2)ccnc1Cl [Compound 8d, 2-Chloro-4-((4-morpholino-2-oxo-1,2-dihydroquinolin-6-yl)amino)nicotinonitrile]	0.29	3.87	–
Cn1cc(-c2cc(=O)[nH]c3ccc(Nc4ccnc(Cl)c4C#N)cc23)cn1 [Compound 8e, 2-Chloro-4-((4-(1-methyl-1H-pyrazol-4-yl)-2-oxo-1,2-dihydroquinolin-6-yl)amino)nicotinonitrile]	0.30	3.54	–
CN(C)c1cc(=O)[nH]c2ccc(Nc3ccnc(Cl)c3C#N)cc12 [Compound 8a, 2-Chloro-4-((4-(dimethylamino)-2-oxo-1,2-dihydroquinolin-6-yl)amino)nicotinonitrile]	0.31	3.05	–
Cn1c(=O)cc(NCC2CC2)c2cc(Nc3cc(C(=O)O)nc(Cl)c3C#N)ccc21 [Compound 11d, 6-Chloro-5-cyano-4-((4-((cyclopropylmethyl)amino)-1-methyl-2-oxo-1,2-dihydroquinolin-6-yl)amino)picolinic Acid]	0.30	3.06	–
CCNc1cc(=O)[nH]c2ccc(Nc3ccnc(Cl)c3C#N)cc12 [Compound 8f, 2-Chloro-4-((4-(ethylamino)-2-oxo-1,2-dihydroquinolin-6-yl)amino)nicotinonitrile]	0.34	3.48	–
Cn1c(=O)ccc2cc(Nc3ccnc(Cl)c3C#N)ccc21 [Compound 2, 2-Chloro-4-((1-methyl-2-oxo-1,2-dihydroquinolin-6-yl)amino)nicotinonitrile]	0.35	2.87	–
N#Cc1c(Nc2ccc3[nH]c(=O)cc(N4CCCCC4)c3c2)ccnc1Cl [Compound 8b, 2-Chloro-4-((2-oxo-4-(piperidin-1-yl)-1,2-dihydroquinolin-6-yl)amino)nicotinonitrile]	0.31	2.83	–
CN1CCN(c2cc(=O)[nH]c3ccc(Nc4ccnc(Cl)c4C#N)cc23)CC1 [Compound 8c, 2-Chloro-4-((4-(4-methylpiperazin-1-yl)-2-oxo-1,2-dihydroquinolin-6-yl)amino)nicotinonitrile]	0.28	3.68	–
Cc1cnc(C(C)Nc2cc(=O)n(C)c3ccc(Nc4ccnc(Cl)c4C#N)cc23)nc1 (stereo not shown) [Compound 24a, 2-Chloro-4-((1-methyl-4-((1-(5-methylpyrimidin-2-yl)ethyl)amino)-2-oxo-1,2-dihydroquinolin-6-yl)amino)nicotinonitrile]	0.31	4.54	–
CNC(=O)[C@@H](C)Nc1cc(=O)[nH]c2ccc(Nc3ccnc(Cl)c3C#N)cc12 [Compound 12b, (R)-2-((6-((2-Chloro-3-cyanopyridin-4-yl)amino)-2-oxo-1,2-dihydroquinolin-4-yl)amino)-N-methylpropanamide]	0.33	5.00	–
Cn1c(=O)cc(NCCF)c2cc(Nc3cc(C(=O)O)nc(Cl)c3C#N)ccc21 [Compound 11c, 6-Chloro-5-cyano-4-((4-((2-fluoroethyl)amino)-1-methyl-2-oxo-1,2-dihydroquinolin-6-yl)amino)picolinic Acid]	0.29	3.46	–
CNC(=O)CNc1cc(=O)[nH]c2ccc(Nc3ccnc(Cl)c3C#N)cc12 [Compound 12e, 2-((6-((2-Chloro-3-cyanopyridin-4-yl)amino)-2-oxo-1,2-dihydroquinolin-4-yl)amino)-N-methylacetamide]	0.24	3.42	–
CC(Nc1cc(=O)n(CC2CCC2)c2ccc(Nc3ccnc(Cl)c3C#N)cc12)c1ncccn1 (stereo not shown) [Compound 17b, 2-Chloro-4-((1-(cyclobutylmethyl)-2-oxo-4-((1-(pyrimidin-2-yl)ethyl)amino)-1,2-dihydroquinolin-6-yl)amino)nicotinonitrile]	0.26	3.19	–
CNC(=O)[C@H](C)Nc1cc(=O)[nH]c2ccc(Nc3ccnc(Cl)c3C#N)cc12 [Compound 12c, (S)-2-((6-((2-Chloro-3-cyanopyridin-4-yl)amino)-2-oxo-1,2-dihydroquinolin-4-yl)amino)-N-methylpropanamide]	0.28	3.97	–
CC(Nc1cc(=O)n(CC2CC2)c2ccc(Nc3ccnc(Cl)c3C#N)cc12)c1ncccn1 (stereo not shown) [Compound 17a, 2-Chloro-4-((1-(cyclopropylmethyl)-2-oxo-4-((1-(pyrimidin-2-yl)ethyl)amino)-1,2-dihydroquinolin-6-yl)amino)nicotinonitrile]	0.26	3.48	–
Cn1c(=O)cc(NC(C)(C)c2ncc(C3CC3)cn2)c2cc(Nc3ccnc(Cl)c3C#N)ccc21 [Compound 25, 2-Chloro-4-((4-((2-(5-cyclopropylpyrimidin-2-yl)propan-2-yl)amino)-1-methyl-2-oxo-1,2-dihydroquinolin-6-yl)amino)nicotinonitrile]	0.30	4.58	–

— article PMC8667045, “Into Deep Water: Optimizing BCL6 Inhibitors by Growing into a Solvated Pocket” (Journal of Medicinal Chemistry, 2021)
